Measurements published in US20130280734A1.

Amino acid sequences for entries named in this document (tags omitted). Residues count along the entry.
UniProt P43220, 24-463 limits assumed: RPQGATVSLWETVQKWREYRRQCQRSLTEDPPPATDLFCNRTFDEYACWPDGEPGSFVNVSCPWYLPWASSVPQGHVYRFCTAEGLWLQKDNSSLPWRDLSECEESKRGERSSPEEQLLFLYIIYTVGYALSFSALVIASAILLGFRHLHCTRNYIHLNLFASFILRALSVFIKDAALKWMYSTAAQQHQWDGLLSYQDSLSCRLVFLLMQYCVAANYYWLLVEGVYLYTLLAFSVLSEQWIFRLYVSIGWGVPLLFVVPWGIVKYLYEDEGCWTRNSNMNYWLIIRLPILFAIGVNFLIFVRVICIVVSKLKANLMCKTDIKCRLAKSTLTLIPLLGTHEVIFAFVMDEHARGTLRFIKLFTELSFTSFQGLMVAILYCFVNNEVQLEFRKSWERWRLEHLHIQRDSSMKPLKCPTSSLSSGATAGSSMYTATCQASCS

Target: human GLP-1 receptor (GLP-1R) (human) (UniProt P43220)
Experiment: cell-based or functional assay
Settings: scale: times higher concentration than the active forms of GLP-1

**Q.** Which reactivity of the kit (aequorin luminescence), concentration relative to the active forms of GLP-1 does the source give for “oxyntomodulin (from UniProt P01275 53-89) (peptide)” here?
**A.** 10000
